PubChem BioAssay (EPA / NIEHS)
Only a part is listed here, and it is no random draw. The source made the active and inactive calls. Rule for the calls: active = hit-call score of the fitted dose curve at least 0.9, where 1 is the maximum; inactive = score below 0.9.

Assay: ATG_PPRE_CIS: Attagene CIS-FACTORIAL HepG2 Assay for human Peroxisome Proliferator-activated Response Element (PPRE) (AID 2282958)
Conditions: HepG2 PPRE cis-element reporter, Attagene transcription factor profiling; actives raise or lower the signal

outcome, inactive:
CC1=Nc2ccc3ccccc3c2C1(C)C
O=[N+]([O-])C1(Br)COCOC1
C=CCOCC(O)CO (centres undefined)
NC(=O)c1ccc(N)cc1
COC(=O)c1ccc(C(=O)OC)cc1
COC(C)CCO (centres undefined)
CN(c1nccc(=O)[nH]1)C1CCN(c2nc3ccccc3n2Cc2ccc(F)cc2)CC1
CC(=O)CCc1ccccc1
O=C1c2cccc(O)c2C(=O)c2c(O)cc(CO)cc21
N#[N+]c1ccc2c(S(=O)(=O)[O-])cccc2c1O
O=[N+]([O-])c1cc(C(F)(F)F)ccc1Cl
Cc1cc(C)c(C(=O)O)c(C)c1
Cc1cc(S(=O)(=O)O)ccc1N=Nc1c(O)ccc2ccccc12
Cc1occc(=O)c1O
CC1=CC(C)C(C=O)C(C)C1 (centres undefined) (tested in a mixture with another compound)
OCCOCCOCCO
CCCCCC(=O)OCCc1ccccc1
C/C=C(\C)C(=O)OCc1ccccc1
Oc1ccc(C(c2ccc(O)cc2)C(Cl)(Cl)Cl)cc1
CC(C)(C)c1ccc(OC(=O)c2ccccc2O)cc1
CC(C)OB(OC(C)C)OC(C)C
CCOc1ccc(NC(C)=O)cc1
N=c1ccn2c(n1)O[C@H]1[C@H](O)[C@@H](CO)O[C@H]12
CC(C)=CCCC(C)=CC(=O)O
CCCC(C)C(O)CC (centres undefined)
CC1=C(CC=O)C(C)(C)CCC1
Cc1ccc2oc(CN(Cc3ccccc3)C(=O)Nc3c(F)cc(F)cc3F)c(-c3ccc(Cl)cc3)c2c1
COC(Cc1ccccc1)OC
c1ccc(CCCc2ccccn2)cc1
COc1ccc(Cl)cc1C
CC1=CC[C@@]23C[C@@H]1C(C)(C)[C@@H]2CC[C@H]3C
c1ccc(CN(Cc2ccccc2)Cc2ccccc2)cc1
c1cc(N(CC2CO2)CC2CO2)ccc1OCC1CO1 (centres undefined)

AC50, active:
CC(C)C(=O)Nc1ccc([N+](=O)[O-])c(C(F)(F)F)c1 38.6 µM
CCCCCCCCCCCCCCCCOS(=O)(=O)O 6.18 µM
CCCc1ccc(O)c(OC)c1 22.7 µM
Nc1c(S(=O)(=O)O)cc(Br)c2c1C(=O)c1ccccc1C2=O 67.7 µM
O=C(Nc1ccccc1SSc1ccccc1NC(=O)c1ccccc1)c1ccccc1 47.7 µM
Oc1ccc2ccccc2c1N=Nc1ccccc1 4.16 µM
